Assay results as given in patent publication US8530490B2, “Uracil compound or salt thereof having human deoxyuridine triphosphatase inhibitory activity” (Taiho Pharmaceutical Co., Ltd., priority 2008, dated 2013).

Sequences of proteins named here, by UniProt entry; tags and fusion partners are left off. Residues count along the entry.
UniProt P33316, 94-252: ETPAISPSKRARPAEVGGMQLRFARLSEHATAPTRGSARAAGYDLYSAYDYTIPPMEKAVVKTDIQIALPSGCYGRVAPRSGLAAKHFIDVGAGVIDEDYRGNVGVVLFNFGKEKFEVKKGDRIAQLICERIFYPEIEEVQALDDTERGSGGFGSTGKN

Molecular target: human dUTPase (Homo sapiens (Human), UniProt P33316)
Assay: Human dUTPase inhibitory effect: production of [5-3H]dUMP from [5-3H]dUTP, measured by HPLC with flow scintillation
Assay type: biochemical
Conditions: [5-3H]dUMP production from [5-3H]dUTP, 37° C., 15 minutes
Procedure: The inhibitory activity of the compound of the present invention against human dUTPase was determined by measuring the production of [5-^3H]deoxyuridine monophosphate (hereinafter, referred to as [5-^3H]dUMP) from [5-^3H]deoxyuridine triphosphate (hereinafter, referred to as [5-^3H]dUTP) according to a method shown below.
Specifically, 0.2 mL in total of a solution containing 0.02 mL of 1 μM dUTP (including 588 Bq/mL [5-3H]dUTP), 0.05 mL of a 0.2 M Tris buffer solution (pH 7.4), 0.05 mL of 16 mM magnesium chloride, 0.02 mL of 20 mM 2-mercaptoethanol, 0.02 mL of a 1% aqueous solution of fetal bovine serum-derived albumin, 0.02 mL of varying concentrations of test compound solutions or pure water as a control, and 0.02 mL of a solution of human dUTPase (expressed using E. coli and purified) was reacted at 37° C. for 15 minutes. Immediately after the reaction, the solution was heated at 100° C. for 1 minute to terminate the reaction, followed by centrifugation at 15000 rpm for 2 minutes. An aliquot (150 μL) of the supernatant thus obtained by centrifugation was analyzed using an Atlantis dC18 column (manufactured by Waters Corp., 4.6×250 mm) and a high-performance liquid chromatograph (manufactured by Shimadzu Corp., Prominence). […]
The inhibitory activity of the test compound was determined according to the formula shown below.

IC50: 2030 nM
SMILES: O=c1ccn(COCCCS(=O)(=O)NCc2cccc(OC(CF)CF)c2)c(=O)[nH]1 [Example 50, N-(3-(1,3-difluoropropan-2-yloxy)benzyl)-3-((2,4-dioxo-3,4-dihydropyrimidin-1(2H)-yl)methoxy)propane-1-sulfonamide]
